Measured values from patent publication US8883765B2, “Anti-cytomegalovirus activity of artemisinin-derived dimers” (The John Hopkins University, priority 2009, dated 2014).

Tested on: pp 28-luciferase expressing CMV (Towne)
Format: cell-based, human CMV
Text: A recombinant virus expressing luciferase reporter gene under the control of UL99 (pp 28) late promoter was generated by insertion of the reporter gene between the US9 and US10 ORFs in the Towne genome. […] Ahn J H, Hayward G S. Disruption of PML-associated nuclear bodies by IE1 correlates with efficient early stages of viral gene expression and DNA replication in human cytomegalovirus infection. Virology. 2000; 274:39-55.
Towne-GFP, Towne-luciferase, and SB viruses were used in these assays. HFF or HEL were grown to subconfluent monolayers and infected with the CMV viruses at MOI 0.1 to 3. […] J Mol Med. 2002; 80:233-242. The concentration of each compound was calculated and adjusted by volume such that it was constant throughout the experiment. Following 90 minute incubation, media was replaced with fresh media containing the drug used. Infected and treated cells were incubated at 37° C. in a 5% CO2 atmosphere for 3-10 days depending on the virus and the anti-viral assay. The recombinant luciferase-expressing virus was incubated for 72 hours, the GFP virus was incubated for 5 days, and the clinical isolate for 10 days. All experiments were subsequently repeated with compounds added to wells just after viral inoculation.

## Nc1nc(O)c2ncn(COC(CO)CO)c2n1 [GCV, Ganciclovir]
From SI of Table 1
  times more selective than the monomers: approximately 10 times
Ratio between CC50 and EC50
  Selectivity index (SI): 44 ± 6.2
